Reference: ChEMBL document CHEMBL3232718, “Design, synthesis, and characterization of novel, nonquaternary reactivators of GF-inhibited human acetylcholinesterase” (2014)

Assay: Dissociation constant, pKa of the compound by capillary electrophoresis analysis

Compound	pKa
O/N=C/c1cnc(OCC2CCN(Cc3ccccc3)CC2)nc1	10.7
O/N=C/c1ccc(OCC2CCN(Cc3ccccc3)CC2)nc1	11.2
